Source: publication PMC3376891 (Cell, 2012)

Molecular target: T1, PepNuoC (Escherichia coli, UniProt P33599)
T1 chain: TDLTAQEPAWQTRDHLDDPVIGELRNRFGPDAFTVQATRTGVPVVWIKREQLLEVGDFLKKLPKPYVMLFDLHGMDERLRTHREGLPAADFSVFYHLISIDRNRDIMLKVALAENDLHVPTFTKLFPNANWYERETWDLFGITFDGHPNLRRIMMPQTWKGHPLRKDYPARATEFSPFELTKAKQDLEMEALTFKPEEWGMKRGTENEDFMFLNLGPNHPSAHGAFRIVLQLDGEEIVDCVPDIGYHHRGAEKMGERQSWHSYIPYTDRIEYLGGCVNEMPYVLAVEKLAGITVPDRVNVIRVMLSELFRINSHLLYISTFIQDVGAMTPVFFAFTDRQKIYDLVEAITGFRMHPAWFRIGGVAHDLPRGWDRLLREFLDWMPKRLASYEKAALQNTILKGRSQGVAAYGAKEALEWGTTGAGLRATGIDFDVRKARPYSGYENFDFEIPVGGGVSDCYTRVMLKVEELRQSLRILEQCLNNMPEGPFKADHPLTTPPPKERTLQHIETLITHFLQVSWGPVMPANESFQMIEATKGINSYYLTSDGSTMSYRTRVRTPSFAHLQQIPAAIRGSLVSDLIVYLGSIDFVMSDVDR
Assay: SPR

B1: Hsp33 (protein)
chain: MPQHDQLHRYLFENFAVRGELVTVSETLQQILENHDYPQPVKNVLAELLVATSLLTATLKFDGDITVQLQGDGPMNLAVINGNNNQQMRGVARVQGEIPENADLKTLVGNGYVVITITPSEGERYQGVVGLEGDTLAACLEDYFMRSEQLPTRLFIRTGDVDGKPAAGGMLLQVMPAQNAQQDDFDHLATLTETIKTEELLTLPANEVLWRLYHEEEVTVYDPQDVEFKCTCSRERCADALKTLPDEEVDSILAEDGEIDMHCDYCGNHYLFNAMDIAEIRNNASPADPQVH
modifications: oxidized Hsp33
B1 gave a Kd of 35 nM.
